# Sampled rows, rich in hits. Any-hit rate of the full collection: about 16%.
# uPA surface inh: inhibitors of cell surface uPA generation; cell surface uPA generation assay, qHTS; Potency, µM (top dose mostly 38.3 µM), for the others: at the top dose activity change, negative = inhibition, usual class: inhibitors; hit rate 0.31% among 330,000; AID 540303; active = well fitted inhibition curve with a large enough effect; inconclusive = small, poorly fitted or top-dose-only effect; inactive = no such curve, though single readings can be large or run the other way; tested in mouse RAW 264.7 cells; also: potency is read from the fitted curve at half-maximal effect; % is scaled to controls: 0 for no effect and ±100 for the full control effect; nearly all actives have a fitted effect of over 55% in size
# TDP1 cell CPT: DT40-hTDP1 cell growth loss with CPT | chicken DT40 Tdp1-/-;hTDP1 cells + 20 nM CPT, ATP luminescence, 48 h | Potency, µM (doses to about 46.2 µM), inactives show at the highest dose activity change, negative = growth inhibition, hits mostly inhibitors | hit rate 12% among 420,000 | AID 686979; also: potency is read from the fitted curve at half-maximal effect; % is scaled to controls: 0 for no effect and ±100 for the full control effect; nearly all actives have a fitted effect of over 55% in size
#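 Cell growth measured by CellTiter-Glo luminescence after a minimum 48 h, 37 C compound exposure with 20 nM CPT in Tdp1-knockout DT40 cells stably expressing hTDP1, seeded 400/well; qHTS titration format.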
# miR-21 FLuc: miR-21 reporter, rising signal | HeLa miR-21 FLuc reporter, luciferase, 48 h | Potency, µM (top dose mostly 38.3 µM), inactives show at the highest dose reporter change, positive = more light | 340,000 tested, under 10 active | AID 2288; active = well fitted rising curve with a large enough effect; inconclusive = small, poorly fitted or top-dose-only effect; inactive = no such curve, though single readings can be large or run the other way;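 note: % of control where 0% means no effect; miR-21 action dims this reporter so a rising signal means less miR-21 action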
#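 Luminescence from a firefly luciferase reporter carrying a miR-21 binding site downstream, stably expressed under a CMV promoter in HeLa cells that make miR-21 endogenously, reports miRNA modulation after 48 h compound exposure up to approximately 40uM final.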
# DT40 TDP1 no CPT: qHTS for Inhibitors of human tyrosyl-DNA phosphodiesterase 1 (TDP1): qHTS in cells in absence of CPT | Potency, µM (highest dose often 46.2 µM), for inactives: at the highest dose activity change, negative = growth inhibition, usual class: inhibitors | hit rate 15% among 420,000 | DT40 Tdp1-/- hTDP1 cells, no CPT, ATP luminescence, 48 h; also: potency is read from the fitted curve at half-maximal effect; % is scaled to controls: 0 for no effect and ±100 for the full control effect; nearly all actives have a fitted effect of over 55% in size
#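 Cells were dispensed at 400 per well, compounds added by pin tool, plates incubated ≥48 hr at 37 °C, then CellTiter-Glo added for 30 min at room temperature before luminescence reading. Line: DT40 Tdp1-/- complemented with hTDP1; camptothecin omitted.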
# TDP1 block: inhibitors of human tyrosyl-DNA phosphodiesterase TDP1; Q9NUW8; recombinant TDP1, AlphaScreen DNA substrate cleavage; Potency, µM (highest dose often 130 µM), for the others: top-dose activity change, negative = inhibition, most hits filed as inhibitors; hit rate 0.28% among 350,000; also: potency is read from the fitted curve at half-maximal effect; % is scaled to controls: 0 for no effect and ±100 for the full control effect; nearly all actives have a fitted effect of over 40% in size
#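 E. coli-derived human Tdp1, 1 nM final. Cpd preinc 15 min RT; substrate 15 nM final, 5 min RT; AS bead mix 10 ug/ml final, 10 min RT. Signal loss = tyrosine-FITC cleavage. No-enzyme wells = max signal.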
# Active calls of the source: *; ? = inconclusive; nt = no result given; [ ] = remark or other dose. Unless noted, calls follow the shape of the dose curve; as a rule, active = well fitted curve in the direction sought with a large enough effect; inconclusive = small, poorly fitted or top-dose-only effect, or another doubt; inactive = no such curve, though single readings can be large; an effect the other way counts as inactive or inconclusive.
SMILES,uPA surface inh,TDP1 cell CPT,miR-21 FLuc,DT40 TDP1 no CPT,TDP1 block
CC[C@]12c3[nH]c4cc(-c5ccco5)ccc4c3CCN1C(=O)[C@@H](CC(=O)NCc1ccco1)C[C@@H]2C(=O)N1CCN(C(=O)c2ccco2)CC1,-11.6%,?,nt,?,4.0%[56.1 µM]
COc1ccc(CNC(=O)CC2C[C@H](C(=O)N3CCOCC3)[C@@]3(CCC4CCCC4)c4[nH]c5ccccc5c4CCN3C2=O)cc1OC (stereo partly specified),?,?,nt,23.1µM*,2.7%
CC(C)(C)NC(=O)C[C@H]1C[C@H](C(=O)N2CCOCC2)[C@@]2(CCC3CCCC3)c3[nH]c4ccc(Cl)cc4c3CCN2C1=O,?,?,nt,16.4µM*,1.2%[56.1 µM]
CN(C)C(=O)CCc1ccc2c3c([nH]c2c1)[C@]1(C)[C@@H](C(=O)N2CCCCC2)C[C@H](CC(=O)NCc2cccc(C(F)(F)F)c2)C(=O)N1CC3,3.0%,20.6µM*,nt,20.6µM*,1.9%[56.1 µM]
CN(C)C(=O)CCc1ccc2c3c([nH]c2c1)[C@]1(CCC2CCCC2)[C@@H](C(=O)N2CCOCC2)C[C@H](CC(=O)NCc2cccc(C(F)(F)F)c2)C(=O)N1CC3,?,20.6µM*,nt,14.6µM*,-0.2%[56.1 µM]
O=C(CC1C[C@H](C(=O)N2CCOCC2)[C@@]2(CCC3CCCC3)c3[nH]c4ccccc4c3CCN2C1=O)NCc1cccc(C(F)(F)F)c1 (stereo partly specified),15.8%,23.1µM*,nt,?,nt
COc1ccc(CNC(=O)C[C@H]2C[C@H](C(=O)N3CCCCC3)[C@@]3(C)c4[nH]c5cc(CCC(=O)N(C)C)ccc5c4CCN3C2=O)cc1OC,0.3%,-12.5%,nt,-15.0%,0.3%[56.1 µM]
CC[C@]12c3[nH]c4ccccc4c3CCN1C(=O)C(CC(=O)NCc1cccc(C(F)(F)F)c1)C[C@@H]2C(=O)N1CCN(C(=O)C2CC2)CC1 (stereo partly specified),-1.7%,?,nt,23.1µM*,0.1%
C[C@@H]1CN([C@H](C)CO)C(=O)CCCn2nncc2CO[C@H]1CN(C)C(=O)c1ccccc1,nt,-5.8%,nt,?,nt
O=C(c1cnc(N2CCCCC2)c2ccccc12)N1CCN(c2ccc(F)cc2)CC1,nt,23.1µM*,20.1%,16.4µM*,5.5%
COc1ccccc1N1CCN(c2ncc(C(=O)N3CCN(c4cccc(Cl)c4)CC3)c3ccccc23)CC1,6.4%,2.59µM*,-4.0%,2.59µM*,1.2%
O=C(c1cnc(N2CCCCC2)c2ccccc12)N1CCN(c2cccc(Cl)c2)CC1,nt,?,25.5%,16.4µM*,-4.4%
COC(=O)c1cnc(N2CCN(c3ccc(F)cc3)CC2)c2ccccc12,nt,?,5.7%,?,-8.1%
O=C(O)c1ccccc1C(=O)N1CCN(c2cccc(Cl)c2)CC1,0.5%,-7.9%,-3.2%,-14.6%,3.3%
CCC(=O)NC(=S)NNC(=O)c1ccc(O)cc1,8.2%,-24.5%,-0.1%,?,8.3%
O=C(NCC1CCCO1)C(c1ccc(F)cc1)N(C(=O)Cn1nnc(-c2ccc(F)cc2)n1)c1cccc(O)c1 (stereo unspecified),0.2%,?,16.1%,9.2µM*,-2.4%
O=C(NC1CCCC1)C(c1cccs1)N(Cc1ccco1)C(=O)Cn1nnc(-c2cccs2)n1 (stereo unspecified),-8.3%,20.6µM*,-3.9%,?,5.3%
O=C(NCC1CCCO1)C(c1cccs1)N(Cc1cccs1)C(=O)Cn1nnc(-c2cccs2)n1 (stereo unspecified),-1.9%,16.4µM*,-0.1%,18.4µM*,2.4%
CC(C)CC(C(=O)NCC1CCCO1)N(C(=O)Cn1nnc(-c2ccc(F)cc2)n1)c1cccc(C(F)(F)F)c1 (stereo unspecified),2.3%,?,-0.4%,-23.3%,3.1%
Cc1ccc(-c2nnn(CC(=O)N(Cc3cccs3)C(C(=O)NC3CCCCC3)c3ccco3)n2)o1 (stereo unspecified),2.1%,25.9µM*,-0.1%,23.1µM*,6.8%
O=C(N/N=C/c1cn[nH]c1-c1ccccc1)c1ccco1,1.2%,-4.9%,-20.3%,-10.7%,5.4%
COc1ccc(C)cc1S(=O)(=O)N1CCN(C(=O)c2ncoc2-c2ccccc2F)CC1,-2.3%,-1.0%,-1.8%,?,nt
O=C(NC1CCCCC1)C(c1ccccc1)N(Cc1ccco1)C(=O)Cn1cnc2ccccc21 (stereo unspecified),4.8%,23.1µM*,0.0%,23.1µM*,-6.6%
CCCCC(C(=O)NC1CCCC1)N(Cc1ccco1)C(=O)Cn1nnc(-c2ccc(F)cc2)n1 (stereo unspecified),6.1%,23.1µM*,4.3%,23.1µM*,5.6%
O=C(CN(Cc1ccco1)C(=O)Cn1nnc(-c2ccc(F)cc2)n1)NC1CCCC1,4.7%,?,-2.0%,?,5.1%

# Another view of 5 compounds above.
# Values run as follows: uPA surface inh | TDP1 cell CPT | miR-21 FLuc | DT40 TDP1 no CPT | TDP1 block
- C[C@@H]1CN([C@H](C)CO)C(=O)CCCn2nncc2CO[C@H]1CN(C)C(=O)c1ccccc1
  nt | -5.8% | nt | ? | nt
- O=C(c1cnc(N2CCCCC2)c2ccccc12)N1CCN(c2ccc(F)cc2)CC1
  nt | 23.1µM* | 20.1% | 16.4µM* | 5.5%
- COc1ccccc1N1CCN(c2ncc(C(=O)N3CCN(c4cccc(Cl)c4)CC3)c3ccccc23)CC1
  6.4% | 2.59µM* | -4.0% | 2.59µM* | 1.2%
- O=C(c1cnc(N2CCCCC2)c2ccccc12)N1CCN(c2cccc(Cl)c2)CC1
  nt | ? | 25.5% | 16.4µM* | -4.4%
- COC(=O)c1cnc(N2CCN(c3ccc(F)cc3)CC2)c2ccccc12
  nt | ? | 5.7% | ? | -8.1%

# Other entries.
SMILES,uPA surface inh,TDP1 cell CPT,miR-21 FLuc,DT40 TDP1 no CPT,TDP1 block
CC(=O)N/C(=C\c1ccccc1)C(=O)OCc1cccc(S(=O)(=O)N(C)C)c1,-7.9%,16.4µM*,12.1%,?,nt
CC(=O)N/C(=C\c1ccccc1)C(=O)OCc1ccccc1,-2.3%,-17.4%,-1.6%,1.9%,0.0%
Cn1cccc1C(C#N)c1cccc(F)c1C#N (stereo unspecified),-8.9%,?,-0.8%,18.4µM*,5.9%
CC12CCC(C/C1=N\N=C1\NC(=O)/C(=C\c3cccc(Br)c3)S1)C2(C)C (stereo unspecified),3.6%,?,-9.1%,?,3.0%
COc1ccc(/C=N/N(CCC(=O)NC(C)(C)C)C2=NS(=O)(=O)c3ccccc32)cc1,1.3%,20.6µM*,-3.1%,20.6µM*,nt
CC(C)(C)NC(=O)CCN(/N=C/c1ccccc1O)C1=NS(=O)(=O)c2ccccc21,0.7%,20.6µM*,11.6%,14.6µM*,nt
CN(/N=C/c1cc(Cl)ccc1O)C1=NS(=O)(=O)c2ccccc21,-23.0%,16.4µM*,2.1%,18.4µM*,nt
CC(C)(C)NC(=O)CCN(/N=C/c1ccncc1)C1=NS(=O)(=O)c2ccccc21,2.2%,-8.1%,-5.1%,-10.0%,nt
Cc1c(CN2CCC(CO)(Cc3cccc(C(F)(F)F)c3)CC2)c2ccccc2n1C,-6.9%,23.1µM*,?,16.4µM*,5.4%
OCC1(Cc2cccc(C(F)(F)F)c2)CCN(Cc2cc3ccccc3o2)CC1,0.7%,?,10.4%,16.4µM*,0.0%
COc1ccc(CC2(CO)CCN(Cc3cc4ccccc4o3)CC2)cc1,1.6%,16.4µM*,9.5%,16.4µM*,2.7%
CC1(C(=O)N2CCC(CO)(Cc3cccc(C(F)(F)F)c3)CC2)CC1,?,?,24.9%,?,nt
C[C@@H]1CN(Cc2ccc3c(c2)CN(Cc2cccn2-c2ccc(Cl)cn2)CCO3)C[C@H](C)O1,nt,6.7%[9.04 µM],nt,-7.4%,nt

# Compound activity as filed in PubChem.
